{"source": "PubChem BioAssay AID662", "about": "(National Center for Advancing Translational Sciences (NCATS), 2007)", "note": "The entries are a selection whose mix differs from that of the whole data set. Records with an inconclusive call do not appear. Active and inactive are the calls of the source. The call rests on the fitted dose curve; in most records, active means well fitted activation curve with a large enough effect in the signal ratio, with a control signal flat (not every such curve was filed as active); inconclusive means small, poorly fitted or top-dose-only effect, or effect the other way, or a change in a side signal; inactive means flat fitted curve, though single readings scatter; the % refers to the signal ratio.", "data": [{"assay": "Cell signaling CRE-BLA (Fsk stim); further: % of control where 0% means no effect", "details": "CHO CRE-bla reporter (cAMP response element driving beta-lactamase), forskolin EC10, beta-lactamase ratio; at 38.2 µM (top of the series)", "source_text": "NIH Molecular Libraries Screening Centers Network [MLSCN]\nNIH Chemical Genomics Center [NCGC]\nAssay Provider: Marshall W. Nirenberg, U.S. National heart lung & blood institute\nMemories persist for different lengths of time, from seconds or minutes to a lifetime. There are two kinds of memory: short-term memory (STM) and long-term memory (LTM). STM lasts for minutes to hours, which maybe mediated by modifications of molecules involved in synaptic functions. LTM lasts for days or longer, and may be due to the formation of new synapses or restructuring of existing synapses. LTM, but not STM, requires gene transcription and synthesis of proteins. […]\nUsing a beta-lactamase reporter-gene under control of cAMP responsive element, a cell-based assay [CellSensor(TM) CRE-bla CHO developed by Invitrogen Corp.] was used to measure forskolin-induced signaling. Library compounds were measured for their ability to modulate positively or negatively the action of EC10 NKH 477, a water soluble forskolin, on reporter gene activity. […]\n2000 cells/5uL in Opti-MEM medium containing 0.5% dialyzed FBS, 0.1 mM NEAA, 1 mM sodium pyruvate and 10 mM HEPES was dispensed into 1536-well plates and cells were cultured at 37 degrees Celsius overnight. […] After incubated at room temperature for 2 hours the plates were measured on an EnVision plate reader at Excitation 405nm, Emission1=460nm and Emission 2=530nm. […]", "values": [{"smiles": "O=[N+]([O-])C(Cl)(Cl)Cl", "activity change, negative = inhibition": "inactive: -1.73%"}]}]}
